Laboratory results taken from ChEMBL document CHEMBL1142822, “Analysis of structure-activity relationships for the 'A-region' of N-(4-t-butylbenzyl)-N'-[4-(methylsulfonylamino)benzyl]thiourea analogues as TRPV1 antagonists” (Bioorg Med Chem Lett, 2005).

Sequences of proteins named here, by UniProt entry; tags and fusion partners are left off.
UniProt O35433, whole entry: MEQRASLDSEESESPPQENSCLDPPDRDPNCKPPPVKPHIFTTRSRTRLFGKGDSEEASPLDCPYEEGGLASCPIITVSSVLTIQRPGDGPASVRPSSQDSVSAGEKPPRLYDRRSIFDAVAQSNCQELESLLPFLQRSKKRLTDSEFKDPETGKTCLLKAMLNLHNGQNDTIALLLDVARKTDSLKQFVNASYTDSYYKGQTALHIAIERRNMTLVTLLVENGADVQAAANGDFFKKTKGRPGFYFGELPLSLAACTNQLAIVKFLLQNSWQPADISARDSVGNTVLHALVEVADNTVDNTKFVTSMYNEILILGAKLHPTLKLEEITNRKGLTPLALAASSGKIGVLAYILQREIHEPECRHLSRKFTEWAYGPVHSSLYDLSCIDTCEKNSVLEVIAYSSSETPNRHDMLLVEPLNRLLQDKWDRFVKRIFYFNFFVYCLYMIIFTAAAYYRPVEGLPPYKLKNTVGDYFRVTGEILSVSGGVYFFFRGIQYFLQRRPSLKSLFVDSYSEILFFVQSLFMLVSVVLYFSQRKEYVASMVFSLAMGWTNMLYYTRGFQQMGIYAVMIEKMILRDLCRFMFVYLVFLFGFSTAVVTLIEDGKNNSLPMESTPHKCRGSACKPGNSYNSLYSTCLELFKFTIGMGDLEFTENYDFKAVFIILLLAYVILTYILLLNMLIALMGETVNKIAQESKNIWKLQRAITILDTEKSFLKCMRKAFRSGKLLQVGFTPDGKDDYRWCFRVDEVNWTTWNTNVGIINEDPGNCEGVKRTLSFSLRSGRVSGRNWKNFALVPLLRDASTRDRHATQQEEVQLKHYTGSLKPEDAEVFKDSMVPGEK

Molecular target: Transient receptor potential cation channel subfamily V member 1 (Rattus norvegicus, UniProt O35433)
Assay: In vitro binding affinity for rat TRPV1 expressed in CHO cells using [3H]-RTX
Assay type: cell-based

Ki: 11.9 µM
Structure (SMILES): CC(C)(C)c1ccc(C/N=C(\S)NCc2ccc(NS(C)(=O)=O)cn2)cc1
